Assays:
[1] = target: P. sul villin V4V6-HP (residues 355 to 824) (Paralvinella sulfincola); assay: crystal structure; V4V6-HP/actin: V4V6-HP mixed 1:1 with ATP-G-actin, gel filtration in buffer A; sitting drop, 20°C, 0.1 M tris-HCl pH 8.0, 50% PEG 400, 0.2 M Li2SO4, 1 mM CaCl2; 3.29 Å; two complexes in the asymmetric unit
[2] = target: P. sul villin V1V3 (three N-terminal domains V1, V2 and V3) (Paralvinella sulfincola); assay: crystal structure; V1V3/actin: full-length villin mixed 1:2 with ATP-G-actin in buffer A, no gel filtration; sitting drop, 20°C, 0.1 M bis-tris propane pH 8.5, 20% PEG 3350, 0.2 M sodium nitrate, 1 mM CaCl2; one complex in the crystal
[3] = target: Paralvinella sulfincola villin (full length) (Paralvinella sulfincola); assay: crystal structure; VA3: villin and chicken ADP-G-actin mixed 1:3 in 2 mM tris-HCl pH 8.0, 0.2 mM ADP, 1.0 mM DTT, 1 mM CaCl2, then SEC; sitting drop, 20°C, 0.1 M bis-tris propane pH 6.5, 10% PEG 3350, 0.2 M KSCN, 5 mM CaCl2/MgCl2; 2.7 Å; two complexes in the asymmetric unit

stoichiometry N (actin subunits per V4V6-HP) [1]: 1
stoichiometry N (actin subunits per V1V3) [2]: 1
stoichiometry N (actin subunits per villin) [3]: 3
Substance: chicken skeletal muscle actin (from UniProt P68139 1-377) (natural protein)

— publication PMC12674126
